The data set is described as follows: UV filter performance: wavelength of maximum absorbance of BMDBM in emollient. It counts as physicochemical. As to conditions: BMDBM dissolved in the listed emollient; UV/Vis 290 to 400nm, 1 cm cuvette. The procedure: The wavelength of maximum absorbance (,max) is an indicator to describe the performance of a UV filter molecule. It gives the wavelength at which the absorbance is at maximum. […] The UV transmission spectrum of each UV filter - emollient mixture was measured from 290 to 400nm using a UV/Vis spectrophotometer Perkin Elmer Lambda 25. Three stock solutions with a concentration of 1mM of UV filter were prepared for each mixture. Further, three dilutions of each stock solution were prepared resulting in nine measurements in total per UV filter-emollient solution. Then, all solutions were filled in UV transparent quartz cuvette of 1 cm optical path-length for UV Transmission measurements.

On to `CCCCOC(=O)CCCCC(=O)OCCCC` [dibutyl adipate], for which the “λmax values (BMDBM)” value came out at 358 nm.

(Values after patent US20220151890A1, “EFFICIENT SUNSCREEN COMPOSITIONS WITH DIETHYLAMINO HYDROXYBENZOYL HEXYL BENZOATE AND BUTYL METHOXYDIBENZOYLMETHANE” (BASF SE, priority 2019, published 2022).)
